Target: T1, Aldo-keto reductase family 1 member C1 (Homo sapiens, UniProt Q04828)
T1 sequence (Q04828 whole entry): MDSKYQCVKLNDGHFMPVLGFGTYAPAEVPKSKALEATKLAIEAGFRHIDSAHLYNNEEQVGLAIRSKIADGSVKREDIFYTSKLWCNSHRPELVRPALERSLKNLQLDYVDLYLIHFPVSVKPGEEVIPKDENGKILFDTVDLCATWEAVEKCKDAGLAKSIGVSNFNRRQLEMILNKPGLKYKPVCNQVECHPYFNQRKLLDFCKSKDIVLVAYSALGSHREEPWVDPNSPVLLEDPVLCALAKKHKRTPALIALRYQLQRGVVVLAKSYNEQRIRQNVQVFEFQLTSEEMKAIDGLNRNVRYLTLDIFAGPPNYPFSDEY
Test: Inhibition of human recombinant AKR1C1 assessed as 1-acenaphthenol oxidation by spectrophotometry

Row | Ki [µM] | Compound
1 | 31 | NC(=O)c1ccccc1/N=C/c1cccc(O)c1O
2 | 56 | O=C(O)CNC=C1C(=O)CC(c2ccccc2)CC1=O (configuration not stated)

Source: ChEMBL document CHEMBL2169790, “Selective inhibitors of aldo-keto reductases AKR1C1 and AKR1C3 discovered by virtual screening of a fragment library” (J Med Chem, 2012)
